Test results taken from patent US20160287666A1 (priority 2015, published 2016).
Where two headings read alike, the source gives them in different places.

Sequences of proteins named here, by UniProt entry; tags and fusion partners are left off. A change or cut given only in a name is not applied to a line headed by its entry.
UniProt Q15858: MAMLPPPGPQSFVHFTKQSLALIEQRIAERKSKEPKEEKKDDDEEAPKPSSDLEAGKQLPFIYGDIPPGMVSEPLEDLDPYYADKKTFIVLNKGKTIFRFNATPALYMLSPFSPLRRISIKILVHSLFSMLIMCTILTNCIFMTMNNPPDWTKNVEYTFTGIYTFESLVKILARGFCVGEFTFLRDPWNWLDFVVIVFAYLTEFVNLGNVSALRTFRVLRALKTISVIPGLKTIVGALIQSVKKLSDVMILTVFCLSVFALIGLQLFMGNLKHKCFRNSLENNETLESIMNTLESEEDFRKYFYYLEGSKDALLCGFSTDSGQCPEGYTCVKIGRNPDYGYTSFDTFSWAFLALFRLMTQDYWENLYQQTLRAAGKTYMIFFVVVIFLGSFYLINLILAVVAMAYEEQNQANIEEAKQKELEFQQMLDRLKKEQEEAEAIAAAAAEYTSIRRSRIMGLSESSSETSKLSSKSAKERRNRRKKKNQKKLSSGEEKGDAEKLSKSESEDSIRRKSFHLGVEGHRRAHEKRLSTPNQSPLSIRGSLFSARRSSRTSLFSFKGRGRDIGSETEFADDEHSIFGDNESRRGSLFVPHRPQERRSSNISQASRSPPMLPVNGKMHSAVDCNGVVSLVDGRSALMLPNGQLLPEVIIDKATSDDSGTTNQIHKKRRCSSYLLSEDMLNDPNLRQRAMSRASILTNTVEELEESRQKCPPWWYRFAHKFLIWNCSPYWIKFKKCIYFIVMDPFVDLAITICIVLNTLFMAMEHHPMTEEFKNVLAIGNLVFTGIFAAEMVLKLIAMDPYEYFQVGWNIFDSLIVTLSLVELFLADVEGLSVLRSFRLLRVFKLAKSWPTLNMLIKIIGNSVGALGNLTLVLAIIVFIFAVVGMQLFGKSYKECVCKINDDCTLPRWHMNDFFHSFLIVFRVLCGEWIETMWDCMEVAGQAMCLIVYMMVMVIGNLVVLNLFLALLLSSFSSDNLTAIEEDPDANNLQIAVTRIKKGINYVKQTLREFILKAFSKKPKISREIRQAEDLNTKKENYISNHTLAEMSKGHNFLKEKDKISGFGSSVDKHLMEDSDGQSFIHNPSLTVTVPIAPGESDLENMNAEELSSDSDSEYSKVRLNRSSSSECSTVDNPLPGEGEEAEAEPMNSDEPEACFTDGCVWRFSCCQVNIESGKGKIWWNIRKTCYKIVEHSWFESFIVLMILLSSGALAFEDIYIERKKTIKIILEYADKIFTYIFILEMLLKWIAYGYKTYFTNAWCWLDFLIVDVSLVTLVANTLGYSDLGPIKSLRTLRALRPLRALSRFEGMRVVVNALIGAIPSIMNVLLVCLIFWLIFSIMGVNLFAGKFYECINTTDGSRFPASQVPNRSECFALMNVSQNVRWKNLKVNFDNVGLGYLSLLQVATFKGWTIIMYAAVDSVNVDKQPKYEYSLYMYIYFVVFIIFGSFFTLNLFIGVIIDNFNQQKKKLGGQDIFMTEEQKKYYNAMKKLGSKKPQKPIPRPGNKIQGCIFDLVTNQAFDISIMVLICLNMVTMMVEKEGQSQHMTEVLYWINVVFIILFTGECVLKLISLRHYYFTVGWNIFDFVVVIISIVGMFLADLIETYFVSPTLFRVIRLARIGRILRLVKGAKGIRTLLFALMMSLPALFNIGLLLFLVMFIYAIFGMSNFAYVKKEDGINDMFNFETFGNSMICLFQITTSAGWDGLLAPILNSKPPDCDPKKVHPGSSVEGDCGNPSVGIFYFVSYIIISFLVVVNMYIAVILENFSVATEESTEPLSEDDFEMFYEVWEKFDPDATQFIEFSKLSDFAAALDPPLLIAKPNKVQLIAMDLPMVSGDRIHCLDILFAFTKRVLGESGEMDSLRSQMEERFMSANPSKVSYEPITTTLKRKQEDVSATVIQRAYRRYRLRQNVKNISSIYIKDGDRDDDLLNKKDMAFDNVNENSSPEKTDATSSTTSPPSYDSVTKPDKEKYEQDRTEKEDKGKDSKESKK

Molecular target: human Nav1.7 (Homo sapiens, UniProt Q15858, W1161R)
Format: cell-based

Row | Substance | IC50 (read-out: Nav1.7 IC50) [nM] | IC50 (read-out: hNav1.7 TETRA IC50) [nM]
1 | GPAAAAAQCQKWMQTCDAERKCCEGFVCRLWCKKKLW-COOH [NV1D3249] | 24.1 | –
2 | GPAAAAAQCQKWMQTCDRERKCCEGFVCTLWCRKKLW-COOH [NV1D3788] | 30.3 | –
3 | GPACQKWMQTCDAERKCCEGFSCRLWCKKKLW-COOH [NV1D3579] | 59.9 | –
4 | GPACQKWMQTCDAERKCCEGFVCTLWCKKKLW-COOH [NV1D3568] | 44 | –
5 | GPACQKWMQTCDAERKCCEGMVCRLWCKKKLW-COOH [NV1D2731] | – | 20.7 ± 7.2
6 | GPACQKWMQTCDAKRKCCEGFSCTLWCRKKLW-COOH [NV1D3537] | 21.4 | –
7 | GPACQKWMQTCDAKRKCCEGFVCTLWCRKKLW-COOH [NV1D3532] | 17.3 | –
8 | GPACQKWMQTCDANRKCCEGFSCRLWCKKKLW-COOH [NV1D3587] | 18.3 | –
9 | GPACQKWMQTCDANRKCCEGFSCTLWCKKKLW-COOH [NV1D3561] | 35.6 | –
10 | GPACQKWMQTCDANRKCCEGFVCTLWCKKKLW-COOH [NV1D3576] | 26.7 | –
11 | GPACQKWMQTCDARRKCCEGFSCRLWCKKKLW-COOH [NV1D3583] | 13.1 | –
12 | GPACQKWMQTCDARRKCCEGFSCTLWCKKKLW-COOH [NV1D3565] | 23 | –
13 | GPACQKWMQTCDARRKCCEGFVCTLWCKKKLW-COOH [NV1D3572] | 19.8 | –
14 | GPACQKWMQTCDRERKCCEGFSCTLWCRKKLW-COOH [NV1D3554] | 31.4 | –
15 | GPACQKWMQTCDRERKCCEGFVCTLWCRKKLW-COOH [NV1D3550] | 25.8 | –
16 | GPACQKWMQTCDRNRKCCEGFSCTLWCRKKLW-COOH [NV1D3546] | 76 | –
17 | GPACQKWMQTCDRNRKCCEGFVCTLWCRKKLW-COOH [NV1D3541] | 9.4 | –
18 | GPACQKWMQTCDSERKCCEGFVCRLWCKKKLW-COOH [NV1D2735] | – | 60 ± 16.2
19 | GPACQKWMQTCDSERKCCEGMVCRLWCKKKLW-COOH [NV1D2670] | – | 22.2 ± 3.3
20 | GPACQKWMWTCDAERKCCEGMVCRLWCKKKLW-COOH [NV1D2674] | 4.03 | –
21 | GPAPAPAPAPAPQCQKWMQTCDRERKCCEGFVCTLWCRKKLW-COOH [NV1D3819] | 56 | –
22 | GPAPAPAQCQKWMQTCDAERKCCEGFVCRLWCKKKLW-COOH [NV1D3251] | 56.1 | –
23 | GPAPAPAQCQKWMQTCDRERKCCEGFVCTLWCRKKLW-COOH [NV1D3789] | 29.9 | –
24 | GPDGPWRKMAPAPAPAPAPQCQKWMQTCDRERKCCEGFVCTLWCRKKLW-COOH [NV1D3804] | 53.6 | –
25 | GPDGPWRKMAPAPAQCQKWMQTCDRERKCCEGFVCTLWCRKKLW-COOH [NV1D3805] | 41.2 | –
26 | GPDGPWRKMQCQKWMQTCDRERKCCEGFVCTLWCRKKLW-COOH [NV1D3806] | 35.1 | –

Row | Substance | IC50 (read-out: Nav1.7 IC50) [nM] | IC50 (read-out: hNav1.7 TETRA IC50) [nM]
27 | GPFGQKASSAPAPAQCQKWMQTCDRERKCCEGFVCTLWCRKKLW-COOH [NV1D3808] | 57 | –
28 | GPFGQKASSQCQKWMQTCDRERKCCEGFVCTLWCRKKLW-COOH [NV1D3809] | 38.9 | –
29 | GPQCAKWMQTCDRERKCCEGFVCTLWCRKKLW-COOH [NV1D3342] | 12.8 | –
30 | GPQCKKWMQTCDRERKCCEGFVCTLWCRKKLW-COOH [NV1D3340] | 11.5 | –
31 | GPQCQAWMQTCDRERKCCEGFVCTLWCRKKLW-COOH [NV1D3348] | 70.6 | –
32 | GPQCQDWMQTCDRERKCCEGFVCTLWCRKKLW-COOH [NV1D3349] | 109 | –
33 | GPQCQEWMQTCDRERKCCEGFVCTLWCRKKLW-COOH [NV1D3350] | 85.6 | –
34 | GPQCQEWMQTCDRERKCCKGFVCTLWCRKKLW-COOH [NV1D3431] | 68.6 | –
35 | GPQCQEWMQTCDRERKCCRGFVCTLWCRKKLW-COOH [NV1D3432] | 95.9 | –
36 | GPQCQKFMQTCDRERKCCEGFVCTLWCRKKLW-COOH [NV1D3465] | 52.8 | –
37 | GPQCQKWMQDCDRERKCCEGFVCTLWCRKKLW-COOH [NV1D3356] | 167 | –
38 | GPQCQKWMQECDRERKCCEGFVCTLWCRKKLW-COOH [NV1D3357] | 111 | –
39 | GPQCQKWMQKCDRERKCCEGFVCTLWCRKKLW-COOH [NV1D3354] | 13.9 | –
40 | GPQCQKWMQQCDRERKCCEGFVCTLWCRKKLW-COOH [NV1D3358] | 20.5 | –
41 | GPQCQKWMQRCDRERKCCEGFVCTLWCRKKLW-COOH [NV1D3353] | 11.2 | –
42 | GPQCQKWMQSCDRERKCCEGFVCTLWCRKKLW-COOH [NV1D3359] | 10.5 | –
43 | GPQCQKWMQTCARERKCCEGFVCTLWCRKKLW-COOH [NV1D3363] | 93.1 | –
44 | GPQCQKWMQTCDAERKCCEGFSCRLWCKKKLW-COOH [NV1D2972] | 34.1 | –
45 | GPQCQKWMQTCDAERKCCEGFSCTLWCKKKLW-COOH [NV1D2974] | 95.7 | –
46 | GPQCQKWMQTCDAERKCCEGFVCRLWCKKKLWAPAPA-COOH [NV1D3252] | 145 | –
47 | GPQCQKWMQTCDAERKCCEGFVCRLWCKKKLWGGGGG-COOH [NV1D3254] | 17.5 | –
48 | GPQCQKWMQTCDAERKCCEGFVCRLWCRKKLW-COOH [NV1D3007] | 29.6 | –
49 | GPQCQKWMQTCDAERKCCEGFVCTLWCKKKLW-COOH [NV1D2973] | 93.9 | –
50 | GPQCQKWMQTCDAERKCCEGFVCTLWCRKKLW-COOH [NV1D3020] | 47.2 | –
51 | GPQCQKWMQTCDAERKCCEGLVCRLWCKKKLW-COOH [NV1D2893] | – | 75.5 ± 10.5
52 | GPQCQKWMQTCDAERKCCEGMVCRLWCKKKLW-COOH [NV1D2732] | – | 126 ± 26.9

Row | Substance | IC50 (read-out: Nav1.7 IC50) [nM] | IC50 (read-out: hNav1.7 TETRA IC50) [nM]
53 | GPQCQKWMQTCDAKRKCCEGFSCTLWCRKKLW-COOH [NV1D3533] | 22.4 | –
54 | GPQCQKWMQTCDAKRKCCEGFVCRLWCKKKLW-COOH [NV1D3048] | 11.1 | –
55 | GPQCQKWMQTCDAKRKCCEGFVCRLWCRKKLW-COOH [NV1D3052] | 84.8 | –
56 | GPQCQKWMQTCDAKRKCCEGFVCTLWCKKKLW-COOH [NV1D3051] | 17.9 | –
57 | GPQCQKWMQTCDANRKCCEGFVCRLWCKKKLW-COOH [NV1D3005] | 7.83 | –
58 | GPQCQKWMQTCDANRKCCEGFVCRLWCRKKLW-COOH [NV1D3018] | 9.79 | –
59 | GPQCQKWMQTCDANRKCCEGFVCTLWCKKKLW-COOH [NV1D3016] | 26.6 | –
60 | GPQCQKWMQTCDANRKCCEGFVCTLWCRKKLW-COOH [NV1D3035] | 32 | –
61 | GPQCQKWMQTCDARRKCCEGFVCRLWCRKKLW-COOH [NV1D3019] | 28.7 | –
62 | GPQCQKWMQTCDARRKCCEGFVCTLWCKKKLW-COOH [NV1D3017] | 21.9 | –
63 | GPQCQKWMQTCDARRKCCEGFVCTLWCRKKLW-COOH [NV1D3036] | 17.2 | –
64 | GPQCQKWMQTCDEERKCCEGFVCTLWCRKKLW-COOH [NV1D3466] | 108 | –
65 | GPQCQKWMQTCDREAKCCEGFVCTLWCRKKLW-COOH [NV1D3371] | 151 | –
66 | GPQCQKWMQTCDREKKCCEGFVCTLWCRKKLW-COOH [NV1D3369] | 20.4 | –
67 | GPQCQKWMQTCDREQKCCEGFVCTLWCRKKLW-COOH [NV1D3374] | 114 | –
68 | GPQCQKWMQTCDRERACCEGFVCTLWCRKKLW-COOH [NV1D3378] | 24.8 | –
69 | GPQCQKWMQTCDRERKCCAGFVCTLWCRKKLW-COOH [NV1D3386] | 33.6 | –
70 | GPQCQKWMQTCDRERKCCDGFVCTLWCRKKLW-COOH [NV1D3387] | 23.7 | –
71 | GPQCQKWMQTCDRERKCCEAFVCTLWCRKKLW-COOH [NV1D3393] | 125 | –
72 | GPQCQKWMQTCDRERKCCEDFVCTLWCRKKLW-COOH [NV1D3394] | 155 | –
73 | GPQCQKWMQTCDRERKCCEGFQCTLWCRKKLW-COOH [NV1D3400] | 57.3 | –
74 | GPQCQKWMQTCDRERKCCEGFSCTLWCRKKLW-COOH [NV1D3398] | 67.3 | –
75 | GPQCQKWMQTCDRERKCCEGFTCTLWCRKKLW-COOH [NV1D3399] | 47.3 | –
76 | GPQCQKWMQTCDRERKCCEGFVCRLWCKKKLW-COOH [NV1D3004] | 6.23 | –
77 | GPQCQKWMQTCDRERKCCEGFVCRLWCRKKLW-COOH [NV1D3015] | 8.86 | –
78 | GPQCQKWMQTCDRERKCCEGFVCTLWCKKKLW-COOH [NV1D3014] | 36.1 | –

Row | Substance | IC50 (read-out: Nav1.7 IC50) [nM] | IC50 (read-out: hNav1.7 TETRA IC50) [nM]
79 | GPQCQKWMQTCDRERKCCEGFVCTLWCRAKLW-COOH [NV1D3403] | 28.3 | –
80 | GPQCQKWMQTCDRERKCCEGFVCTLWCRKALW-COOH [NV1D3410] | 114 | –
81 | GPQCQKWMQTCDRERKCCEGFVCTLWCRKKLD-COOH [NV1D3419] | 80.9 | –
82 | GPQCQKWMQTCDRERKCCEGFVCTLWCRKKLG-COOH [NV1D3439] | 112 | –
83 | GPQCQKWMQTCDRERKCCEGFVCTLWCRKKLWAAAAA-COOH [NV1D3791] | 61.8 | –
84 | GPQCQKWMQTCDRERKCCEGFVCTLWCRKKLWAPAPADGPWRKM-COOH [NV1D3513] | 131 | –
85 | GPQCQKWMQTCDRERKCCEGFVCTLWCRKKLWAPAPAPAPAP-COOH [NV1D3527] | 169 | –
86 | GPQCQKWMQTCDRERKCCEGFVCTLWCRKKLWAPAPAPAPAPDGPWRKM-COOH [NV1D3512] | 116 | –
87 | GPQCQKWMQTCDRERKCCEGFVCTLWCRKKLWAPAPAPAPAPYGRKKRRQRRR-COOH [NV1D3524] | 84.9 | –
88 | GPQCQKWMQTCDRERKCCEGFVCTLWCRKKLWAPAPASPGARAF-COOH [NV1D3510] | 159 | –
89 | GPQCQKWMQTCDRERKCCEGFVCTLWCRKKLWAPAPAYGRKKRRQRRR-COOH [NV1D3525] | 52.3 | –
90 | GPQCQKWMQTCDRERKCCEGFVCTLWCRKKLWDGPWRKM-COOH [NV1D3514] | 46.4 | –
91 | GPQCQKWMQTCDRERKCCEGFVCTLWCRKKLWFGQKASS-COOH [NV1D3517] | 58.5 | –
92 | GPQCQKWMQTCDRERKCCEGFVCTLWCRKKLWGGGGG-COOH [NV1D3792] | 25.3 | –
93 | GPQCQKWMQTCDRERKCCEGFVCTLWCRKKLWQRFVTGHFGGLYPANG-COOH [NV1D3520] | 71.4 | –
94 | GPQCQKWMQTCDRERKCCEGFVCTLWCRKKLWRRRRRRRRRRR-COOH [NV1D3523] | 44.7 | –
95 | GPQCQKWMQTCDRERKCCEGFVCTLWCRKKLWSPGARAF-COOH [NV1D3511] | 71.5 | –
96 | GPQCQKWMQTCDRERKCCEGFVCTLWCRKKLWYGRKKRRQRRR-COOH [NV1D3526] | 15.4 | –
97 | GPQCQKWMQTCDRERKCCEGFVCTLWCRKQLW-COOH [NV1D3413] | 164 | –
98 | GPQCQKWMQTCDRERKCCEGFVCTLWCRKRLW-COOH [NV1D3408] | 94.8 | –
99 | GPQCQKWMQTCDRERKCCEGFVCTLWCRKSLW-COOH [NV1D3414] | 102 | –
100 | GPQCQKWMQTCDRERKCCEGFVCTLWCRRKLW-COOH [NV1D3401] | 45.5 | –
101 | GPQCQKWMQTCDRERKCCEGLVCTLWCRKKLW-COOH [NV1D3470] | 32.5 | –
